# Results as given in article PMC10572347, “Structure–Activity Relationships and Antiplasmodial Potencies of Novel 3,4-Disubstituted 1,2,5-Oxadiazoles” (International Journal of Molecular Sciences, 2023).
# Test system: P. falciparum NF54
# Test: In vitro microplate assay against P. falciparum (3H-hypoxanthine incorporation)
# Type: cell-based, Plasmodium falciparum
# Conditions: L-6 cells vs P.f. NF54
# Method: In vitro activity against the erythrocytic stages of P. falciparum was determined using a ^3H-hypoxanthine incorporation assay, using the drug sensitive NF54 strain [37]. […] Serial drug dilutions of 11 3-fold dilution steps covering a range from 100 to 0.002 µg/mL were prepared. The 96-well plates were incubated in a humidified atmosphere at 37 °C, 4% CO2, 3% O2 and 93% N2. After 48 h, 0.05 mL of ^3H-hypoxanthine (=0.5 µCi) was added to each well of the plate. The plates were incubated for a further 24 h under the same conditions. The plates were then harvested with a Betaplate cell harvester (Wallac, Zurich, Switzerland). The red blood cells were transferred onto a glass fiber filter and washed with distilled water. The dried filters were inserted into a plastic foil with 10 mL of scintillation fluid and counted in a Betaplate liquid scintillation counter (Wallac, Zurich, Switzerland). The IC50 values were calculated from sigmoidal inhibition curves by linear regression using Microsoft Excel. Chloroquine (Sigma C6628) was used as control.
substance,measurement,value
"N-[4-(4-Fluorophenyl)-3-(trifluoromethyl)-1,2,5-oxadiazol-3-yl]benzamide [Compound 50]",S.I. = IC50 (Cyt.)/IC50 (P.f.NF54),0.852
